Test results reported in patent US20260207704A1, “STAPLED PEPTIDES AND METHODS THEREOF” (priority 2022, published 2026).

The chains behind the UniProt entries cited, without tags or fusion partners.
UniProt P35222, whole entry: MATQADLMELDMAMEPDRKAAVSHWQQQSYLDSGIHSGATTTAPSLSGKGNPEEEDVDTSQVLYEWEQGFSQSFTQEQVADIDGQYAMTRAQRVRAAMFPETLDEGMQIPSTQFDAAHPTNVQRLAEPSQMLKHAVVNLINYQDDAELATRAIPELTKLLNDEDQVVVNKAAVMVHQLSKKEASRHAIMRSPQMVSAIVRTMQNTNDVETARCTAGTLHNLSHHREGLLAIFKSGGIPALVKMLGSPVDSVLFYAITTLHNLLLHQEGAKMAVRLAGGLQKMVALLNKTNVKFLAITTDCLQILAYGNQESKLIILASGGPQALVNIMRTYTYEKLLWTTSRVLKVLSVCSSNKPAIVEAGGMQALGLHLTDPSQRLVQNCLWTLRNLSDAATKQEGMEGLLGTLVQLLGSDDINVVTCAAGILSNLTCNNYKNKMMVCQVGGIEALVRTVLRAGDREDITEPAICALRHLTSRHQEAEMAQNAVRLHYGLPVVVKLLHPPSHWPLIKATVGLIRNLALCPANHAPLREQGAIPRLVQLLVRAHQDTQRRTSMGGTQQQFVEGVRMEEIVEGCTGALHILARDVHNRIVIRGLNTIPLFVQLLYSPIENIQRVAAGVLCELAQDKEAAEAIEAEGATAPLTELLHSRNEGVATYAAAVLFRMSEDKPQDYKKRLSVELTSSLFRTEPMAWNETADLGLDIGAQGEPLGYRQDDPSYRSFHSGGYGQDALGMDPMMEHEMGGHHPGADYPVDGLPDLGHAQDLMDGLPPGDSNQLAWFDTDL

Columns and labels:
beta-catenin = beta-catenin (Homo sapiens, UniProt P35222); assay: fluorescence polarization binding to beta-catenin; conditions: beta-Catenin FP IC50 (nM)
beta-catenin/TCF4 = target: T1, beta-catenin/TCF4 (Homo sapiens, UniProt P35222); assay: Nano-BRET target engagement assay (HEK293 cells); type: cell-based
T1 construct: expressed in transfected cells; host or cells: HEK293 cells

Row | SMILES | IC50 (beta-catenin) | IC50 (beta-catenin/TCF4)
1 | CC(=O)N1CCC[C@]12CC=CCCCC1(CCCC=CCCCOC(=O)N3CC[C@@]4(C3)NC(=O)[C@H](CCCCNC(=O)CC[C@@H](C(=O)N[C@@H](C)C(N)=O)NC(=O)[C@H](Cc3csc5ccccc35)NC(=O)[C@H](Cc3ccccc3C(F)(F)F)NC4=O)NC(=O)[C@H](Cc3ccccc3)NC(=O)[C@H](C)NC(=O)C(C)(C)NC(=O)[C@H](Cc3ccc(C(F)(F)F)c(C(=O)O)c3)NC(=O)[C@H](CC(=O)O)NC1=O)NC(=O)[C@H](CC(C)(C)C)NC(=O)[C@H](CC(=O)O)NC2=O (relative stereo) [I-207, Ac-PL3-Asp-Npg-B5-Asp-4F3Me3COOHF-Aib-Ala-Phe-Lys*3-PyrS2-2F3MeF-BztA-GlnR*3-Ala-NH2] | < 50 nM | 1500 to 3000 nM
2 | CC(=O)N1CCC[C@]12CC=CCCCC1(CCCC=CCCCOC(=O)N3CC[C@@]4(C3)NC(=O)[C@H](CC(C)C)NC(=O)[C@H](Cc3ccccc3)NC(=O)[C@H](C)NC(=O)[C@H](CCC(=O)N3CCC5(CCN(CC5)C(=O)CC[C@@H](C(=O)N[C@@H](C)C(N)=O)NC(=O)[C@H](Cc5csc6ccccc56)NC(=O)[C@H](Cc5ccccc5C(F)(F)F)NC4=O)CC3)NC(=O)[C@H](Cc3cccc(C(=O)O)c3)NC(=O)[C@H](CC(=O)O)NC1=O)NC(=O)[C@H](CC(C)(C)C)NC(=O)[C@H](CC(=O)O)NC2=O (stereo partly drawn) [I-130, Ac-PL3-Asp-Npg-B5-Asp-3COOHF-GlnR-Ala-Phe-Leu-PyrS2-2F3MeF-BztA-[39N2spiroundecane]GlnR-Ala-NH2] | 50 to 200 nM | > 10000 nM
3 | CCNC(=O)[C@H](C)NC(=O)[C@@H]1CCC(=O)NCCCC[C@@H]2NC(=O)[C@H](Cc3ccccc3)NC(=O)[C@H](C)NC(=O)C(C)(C)NC(=O)[C@H](Cc3cccc(C(=O)O)c3)NC(=O)[C@H](CC(=O)O)NC(=O)C3(CCCC=CCCCOC(=O)N4CC[C@@](C4)(NC2=O)C(=O)N[C@@H](Cc2ccccc2C(F)(F)F)C(=O)N[C@@H](Cc2csc4ccccc24)C(=O)N1)CCCC=CC[C@]1(CCCN1C(C)=O)C(=O)N[C@@H](CC(=O)O)C(=O)N[C@@H](CC(C)(C)C)C(=O)N3 (relative stereo) [I-226, Ac-PL3-Asp-Npg-B5-Asp-3COOHF-Aib-Ala-Phe-Lys*3-PyrS2-2F3MeF-BztA-GlnR*3-Ala-NHEt] | < 50 nM | 1500 to 3000 nM
4 | CC(=O)N1CCC[C@]12CC=CCCCC1(CCCC=CCCCOC(=O)N3CC[C@@]4(C3)NC(=O)[C@H](CC(C)C)NC(=O)[C@H](Cc3ccccc3)NC(=O)[C@H](C)NC(=O)[C@H](CCC(=O)N3CCC5(CCCN(C5)C(=O)CC[C@@H](C(=O)N[C@@H](C)C(N)=O)NC(=O)[C@H](Cc5csc6ccccc56)NC(=O)[C@H](Cc5ccccc5C(F)(F)F)NC4=O)CC3)NC(=O)[C@H](Cc3cccc(C(=O)O)c3)NC(=O)[C@H](CC(=O)O)NC1=O)NC(=O)[C@H](CC(C)(C)C)NC(=O)[C@H](CC(=O)O)NC2=O (stereo partly drawn) [I-131, Ac-PL3-Asp-Npg-B5-Asp-3COOHF-GlnR-Ala-Phe-Leu-PyrS2-2F3MeF-BztA-[29N2spiroundecane]GlnR-Ala-NH2] | 200 to 750 nM | > 10000 nM
5 | CC(=O)N1CCC[C@]12CC=CCCCC1(CCCC=CCCCOC(=O)N3CC[C@@]4(C3)NC(=O)[C@H](CC(C)C)NC(=O)[C@H](Cc3ccccc3)NC(=O)[C@H](C)NC(=O)[C@H](CCCCNC(=O)c3cccc(c3)-c3cccc(c3)C(=O)NCCCC[C@@H](C(N)=O)NC(=O)[C@H](Cc3csc5ccccc35)NC(=O)[C@H](Cc3ccsc3)NC4=O)NC(=O)[C@H](Cc3cccc(C(=O)O)c3)NC(=O)[C@H](CC(=O)O)NC1=O)NC(=O)[C@H](CC(C)(C)C)NC(=O)[C@H](CC(=O)O)NC2=O (stereo partly drawn) [I-49, Ac-PL3-Asp-Npg-B5-Asp-3COOHF-[Biphen33COOH]-Lys-Ala-Phe-Leu-PyrS2-3Thi-BztA-Lys-NH2] | 50 to 200 nM | 3000 to 10000 nM
6 | CC(=O)N1CCC[C@]12CC=CCCCC1(CCCC=CCCCOC(=O)N3CC[C@@]4(C3)NC(=O)[C@H](CCCCNC(=O)CC[C@@H](C(=O)N[C@@H](C)C(N)=O)NC(=O)[C@H](Cc3csc5ccccc35)NC(=O)[C@H](Cc3ccccc3C(F)(F)F)NC4=O)NC(=O)[C@H](Cc3ccccc3)NC(=O)[C@H](C)NC(=O)C(C)(C)NC(=O)[C@H](Cc3ccc(O)c(C(=O)O)c3)NC(=O)[C@H](CC(=O)O)NC1=O)NC(=O)[C@H](CC(C)(C)C)NC(=O)[C@H](CC(=O)O)NC2=O (relative stereo) [I-194, Ac-PL3-Asp-Npg-B5-Asp-40H3COOHF-Aib-Ala-Phe-Lys*3-PyrS2-2F3MeF-BztA-GlnR*3-Ala-NH2] | < 50 nM | < 1500 nM
7 | CC(=O)N1CCC[C@]12CC=CCCCC1(CCCC=CCCCOC(=O)N3CC[C@@]4(C3)NC(=O)[C@H](CCC(=O)NCCC[C@@H](C(N)=O)NC(=O)[C@H](Cc3csc5ccccc35)NC(=O)[C@H](Cc3ccsc3)NC4=O)NC(=O)[C@H](Cc3ccccc3)NC(=O)[C@H](C)NC(=O)[C@H](C)NC(=O)[C@H](Cc3cccc(C(=O)O)c3)NC(=O)[C@H](CC(=O)O)NC1=O)NC(=O)[C@H](CC(C)(C)C)NC(=O)[C@H](CC(=O)O)NC2=O (relative stereo) [I-38, Ac-PL3-Asp-Npg-B5-Asp-3COOHF-Ala-Ala-Phe-GlnR*3-PyrS2-3Thi-BztA-Orn*3-NH2] | < 50 nM | 3000 to 10000 nM
8 | CC(=O)N1CCC[C@]12CC=CCCCC1(CCCC=CCCCOC(=O)N3CC[C@@]4(C3)NC(=O)[C@H](CCCNC(=O)CC[C@@H](C(N)=O)NC(=O)[C@H](Cc3csc5ccccc35)NC(=O)[C@H](Cc3ccsc3)NC4=O)NC(=O)[C@H](Cc3ccccc3)NC(=O)[C@H](C)NC(=O)[C@H](C)NC(=O)[C@H](Cc3cccc(C(=O)O)c3)NC(=O)[C@H](CC(=O)O)NC1=O)NC(=O)[C@H](CC(C)(C)C)NC(=O)[C@H](CC(=O)O)NC2=O (relative stereo) [I-37, Ac-PL3-Asp-Npg-B5-Asp-3COOHF-Ala-Ala-Phe-Orn*3-PyrS2-3Thi-BztA-GlnR*3-NH2] | < 50 nM | 3000 to 10000 nM
9 | CC(=O)N1CCC[C@]12CC=CCCCC1(CCCC=CCCCOC(=O)N3CC[C@@]4(C3)NC(=O)[C@H](CCCCNC(=O)CC[C@@H](C(=O)N[C@@H](C)C(N)=O)NC(=O)[C@H](Cc3csc5ccccc35)NC(=O)[C@H](Cc3ccccc3C(F)(F)F)NC4=O)NC(=O)[C@H](Cc3ccccc3)NC(=O)[C@H](C)NC(=O)C(C)(C)NC(=O)[C@H](Cc3cccc(C(=O)O)c3O)NC(=O)[C@H](CC(=O)O)NC1=O)NC(=O)[C@H](CC(C)(C)C)NC(=O)[C@H](CC(=O)O)NC2=O (relative stereo) [I-193, Ac-PL3-Asp-Npg-B5-Asp-20H3COOHF-Aib-Ala-Phe-Lys*3-PyrS2-2F3MeF-BztA-GlnR*3-Ala-NH2] | < 50 nM | 3000 to 10000 nM
10 | CC(=O)N1CCC[C@]12CCCCCCC13CCCCCCCCOC(=O)N4CC[C@@]5(C4)NC(=O)[C@H](CCCCNC(=O)CC[C@@H](C(=O)N[C@@H](C)C(N)=O)NC(=O)[C@H](Cc4csc6ccccc46)NC(=O)[C@H](Cc4ccsc4)NC5=O)NC(=O)[C@H](Cc4ccccc4)NC(=O)[C@H](C)NC(=O)[C@H](CCCCNC(=O)CC[C@H](NC(=O)[C@H](CC(=O)O)NC2=O)C(=O)N1)NC(=O)[C@H](Cc1cccc(C(=O)O)c1)NC(=O)[C@H](CC(=O)O)NC3=O (relative stereo) [I-78, Ac-PL3-Asp-GlnR**3-B5-Asp-3COOHF-Lys**3-Ala-Phe-Lys*3-PyrS2-3Thi-BztA-GlnR*3-Ala-NH2] | < 50 nM | > 10000 nM
11 | CC(=O)N1CCC[C@]12CC=CCCCC1(CCCC=CCCCOC(=O)N3CC[C@@]4(C3)NC(=O)[C@H](CCCCNC(=O)CC[C@@H](C(=O)N[C@@H](C)C(N)=O)NC(=O)[C@H](Cc3csc5ccccc35)NC(=O)[C@H](Cc3ccsc3)NC4=O)NC(=O)[C@H](Cc3ccccc3)NC(=O)[C@H](C)NC(=O)C(C)(C)NC(=O)[C@H](Cn3cc(CC(C)(C)C(=O)O)nn3)NC(=O)[C@H](CC(N)=O)NC1=O)NC(=O)[C@H](CC(C)(C)C)NC(=O)[C@H](CC(=O)O)NC2=O (relative stereo) [I-318, Ac-PL3-Asp-Npg-B5-Asn-[CH2CMe2CO2H]TriAzDap-Aib-Ala-Phe-Lys*3-PyrS2-3Thi-BztA-GlnR*3-Ala-NH2] | < 50 nM | 3000 to 10000 nM
12 | CCNC(=O)[C@H](CO)NC(=O)[C@H](C)NC(=O)[C@@H]1CCC(=O)NCCCC[C@@H]2NC(=O)[C@H](Cc3ccccc3)NC(=O)[C@H](C)NC(=O)C(C)(C)NC(=O)[C@H](Cc3cccc(C(=O)O)c3)NC(=O)[C@H](CC(=O)O)NC(=O)C3(CCCC=CCCCOC(=O)N4CC[C@@](C4)(NC2=O)C(=O)N[C@@H](Cc2ccccc2C(F)(F)F)C(=O)N[C@@H](Cc2csc4ccccc24)C(=O)N1)CCCC=CC[C@]1(CCCN1C(C)=O)C(=O)N[C@@H](CC(=O)O)C(=O)N[C@@H](CC(C)(C)C)C(=O)N3 (relative stereo) [I-227, Ac-PL3-Asp-Npg-B5-Asp-3COOHF-Aib-Ala-Phe-Lys*3-PyrS2-2F3MeF-BztA-GlnR*3-Ala-Ser-NHEt] | < 50 nM | 1500 to 3000 nM
13 | CC(=O)N1CCC[C@]12CC=CCCCC1(CCCC=CCCCOC(=O)N3CC[C@@]4(C3)NC(=O)[C@H](CC(C)C)NC(=O)[C@H](Cc3ccccc3)NC(=O)[C@H](C)NC(=O)[C@H](CCCCNC(=O)CCC(=O)NCCCC[C@@H](C(N)=O)NC(=O)[C@H](Cc3csc5ccccc35)NC(=O)[C@H](Cc3ccsc3)NC4=O)NC(=O)[C@H](Cc3cccc(C(=O)O)c3)NC(=O)[C@H](CC(=O)O)NC1=O)NC(=O)[C@H](CC(C)(C)C)NC(=O)[C@H](CC(=O)O)NC2=O (stereo partly drawn) [I-46, Ac-PL3-Asp-Npg-B5-Asp-3COOHF-[succinate]-Lys-Ala-Phe-Leu-PyrS2-3Thi-BztA-Lys-NH2] | < 50 nM | 3000 to 10000 nM
14 | CC(=O)N1CCC[C@]12CC=CCCCC1(CCCC=CCCCOC(=O)N3CC[C@@]4(C3)NC(=O)[C@H](CCCCNC(=O)CC[C@@H](C(=O)N[C@@H](C)C(N)=O)NC(=O)[C@H](Cc3csc5ccccc35)NC(=O)[C@H](Cc3ccncc3)NC4=O)NC(=O)[C@H](Cc3ccccc3)NC(=O)[C@H](C)NC(=O)C(C)(C)NC(=O)[C@H](Cc3cccc(C(=O)O)c3)NC(=O)[C@H](CC(=O)O)NC1=O)NC(=O)[C@H](CC(C)(C)C)NC(=O)[C@H](CC(=O)O)NC2=O (relative stereo) [I-301, Ac-PL3-Asp-Npg-B5-Asp-3COOHF-Aib-Ala-Phe-Lys*3-PyrS2-4PyrA-BztA-GlnR*3-Ala-NH2] | < 50 nM | > 10000 nM
